Consider three compounds from ChEMBL document CHEMBL2311317, “Organosilicon molecules with medicinal applications” (J Med Chem, 2013).

SMILES strings stand for the structures.

The experiment is filed under the species Homo sapiens. Nature of the experiment: Selectivity ratio of COX1 (unknown origin) to COX2 (unknown origin).

As to `COc1ccc2c(c1)c(CC(=O)NC[Si](C)(C)c1ccccc1)c(C)n2C(=O)c1ccc(Cl)cc1`, the Selectivity ratio stood at 1000.
`COc1ccc2c(c1)c(CC(=O)NCCC[Si](C)(C)C)c(C)n2C(=O)c1ccc(Cl)cc1`: the Selectivity ratio worked out at 1000.
The same measure for `COc1ccc2c(c1)c(CC(=O)NC[Si](C)(C)C)c(C)n2C(=O)c1ccc(Cl)cc1`: 1000.
